# Measured affinities in a library of Ab-14 heavy chain variants

Source: Li et al. 2023 (doi:10.1038/s41467-023-39022-2), MIT Lincoln Laboratory and A-Alpha Bio; data file from the FLAb repository.

Target peptide (SARS-CoV-2 spike, HR2 region): PDVDLGDISGINAS

Parent scFv Ab-14: VH joined to VL by the linker GGGGSGGGGSGGGGS. Changes lie in the heavy chain CDRs alone.
VH: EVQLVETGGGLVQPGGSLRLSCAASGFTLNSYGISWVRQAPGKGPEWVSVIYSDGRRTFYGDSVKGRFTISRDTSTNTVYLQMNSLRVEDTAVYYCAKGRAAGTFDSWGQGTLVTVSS
VL: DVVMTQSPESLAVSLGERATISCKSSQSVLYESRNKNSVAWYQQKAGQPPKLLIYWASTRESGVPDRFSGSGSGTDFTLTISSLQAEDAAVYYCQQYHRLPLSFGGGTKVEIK

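The starting antibody came from a phage panning campaign against this peptide. Designed CDR sequences, proposed from the first random library and measured here. Their group label is 14H_Ctrl (Ctrl: baseline library sampled from a position-specific scoring matrix, with some repeated check sequences). Affinity was read by AlphaSeq, a pooled yeast mating assay with surface-displayed partners. Mating (16 h, 30 °C) was followed by selection of diploids and sequencing of their barcodes. Scores were corrected for input abundance and mapped to Kd with protein pairs of known affinity run in the same pool. Mating was done six times.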

Each variant is given by its three heavy chain CDRs, as the data file delimits them; those of the parent are GFTLNSYGIS, VIYSDGRRTFYGDSVK, GRAAGTFDS.
Scale: log10 of Kd in nM, estimated from mating counts; low values are strong binders.
"ND" means that the variant was in the library but no mating with the target was seen in that replicate; the authors take this as a sign of poor binding, and no number exists.
The range of this assay differs from that of the first round, and the authors advise against merging the two.
Three control strains display no target. For all heavy chain designs, 1% of the pairings with them gave a signal, with a median of 2.08 and one signal in twenty below 0.84, so weak values seen in few replicates may be background. The control count says in how many pairings with the empty strains this scFv gave a signal, with their mean in brackets.
The parent sequence was in this pool as ten entries: three were never detected, three once, and four in most replicates, with averages from 0.34 to 2.37.
The authors' rule: three or more of the six replicates give a measured affinity, fewer mean a poor binder.

{"CDR-H1": "GFALNDYGIS", "CDR-H2": "VIYSDGRRTFYGNSVK", "CDR-H3": "GRADGTFDS", "log10 Kd, replicates": "0.09 / 0.20 / 0.29 / 0.75 / 2.51 / 1.55", "control signals": "0/18"}
{"CDR-H1": "GFTLNSYGIS", "CDR-H2": "VIYSDGRRTFYGDSVK", "CDR-H3": "GMAAGTFDG", "log10 Kd, replicates": "ND / ND / ND / ND / ND / ND", "control signals": "0/18"}
{"CDR-H1": "GFTLNKYGIS", "CDR-H2": "VIYSDGRRTFYNDKVK", "CDR-H3": "GEFAGTFDD", "log10 Kd, replicates": "ND / ND / ND / ND / ND / ND", "control signals": "2/18 (2.28)"}
{"CDR-H1": "GFTLNSYGIS", "CDR-H2": "VIYSDGRRTFYGDSVK", "CDR-H3": "GQAAGQFDS", "log10 Kd, replicates": "ND / ND / ND / ND / ND / ND", "control signals": "0/18"}
{"CDR-H1": "GFTLNEYGIS", "CDR-H2": "VIYSDGRRTFYGDSVK", "CDR-H3": "GRDAGYFDS", "log10 Kd, replicates": "0.87 / 0.48 / 0.91 / 0.78 / 0.66 / 1.40", "control signals": "1/18 (1.55)"}
{"CDR-H1": "GFDLNSYGIS", "CDR-H2": "VIYSDGRRTAYTDSFK", "CDR-H3": "GRAAGTFDS", "log10 Kd, replicates": "ND / ND / ND / ND / ND / ND", "control signals": "0/18"}
{"CDR-H1": "GFNLNSYGIS", "CDR-H2": "VIYSDGKRTFYGDSVK", "CDR-H3": "GVAAGTFDS", "log10 Kd, replicates": "1.48 / 0.72 / 1.25 / 0.63 / 0.70 / 0.69", "control signals": "0/18"}
{"CDR-H1": "GFTINSYGIS", "CDR-H2": "VIYSDGRRTFYGDSVR", "CDR-H3": "GRAAGTFVS", "log10 Kd, replicates": "ND / 4.02 / ND / ND / 2.44 / ND", "control signals": "0/18"}
{"CDR-H1": "GFTLNSYGIS", "CDR-H2": "VIYSDGMRTFYDDSVK", "CDR-H3": "GQAAGTFDS", "log10 Kd, replicates": "0.88 / 0.83 / 0.84 / 0.75 / 0.96 / 0.75", "control signals": "0/18"}
{"CDR-H1": "GFTLESYGIS", "CDR-H2": "VIYHDGRRTFYGDSVK", "CDR-H3": "GRAGGTFDS", "log10 Kd, replicates": "ND / ND / ND / ND / ND / ND", "control signals": "0/18"}
{"CDR-H1": "GFTLASYGIS", "CDR-H2": "VIYSDGRRTFYGDSVK", "CDR-H3": "GRAAGTFDS", "log10 Kd, replicates": "ND / 3.13 / ND / ND / ND / ND", "control signals": "0/18"}
{"CDR-H1": "GFTNNEYGIS", "CDR-H2": "VIYSDGRRTFYGDSVK", "CDR-H3": "GRTMGTFDS", "log10 Kd, replicates": "2.69 / 1.98 / 2.10 / 1.99 / 1.53 / 1.91", "control signals": "1/18 (2.62)"}
{"CDR-H1": "GITLNDYGIS", "CDR-H2": "VIYSDGRRTFYQDSVK", "CDR-H3": "GRAAGTFDS", "log10 Kd, replicates": "2.78 / 2.55 / 1.66 / ND / 3.96 / 4.77", "control signals": "0/18"}
{"CDR-H1": "GFTLNSYGIS", "CDR-H2": "VIYSDGRRTFYGDSVK", "CDR-H3": "SRAAGTFDA", "log10 Kd, replicates": "ND / ND / ND / ND / ND / ND", "control signals": "0/18"}
{"CDR-H1": "GFNLNSYGIS", "CDR-H2": "VIYSDGERTFYGDSVK", "CDR-H3": "GRAAGTFDS", "log10 Kd, replicates": "0.57 / 0.57 / 1.13 / ND / 1.22 / 1.08", "control signals": "0/18"}
{"CDR-H1": "GFVLNSYGIS", "CDR-H2": "VIYSDGRRTFYGDDVK", "CDR-H3": "GQAYGTFDS", "log10 Kd, replicates": "ND / ND / ND / ND / ND / ND", "control signals": "0/18"}
{"CDR-H1": "GETLNSYGIS", "CDR-H2": "VIYSDGRRTFYNDSVK", "CDR-H3": "GRAAGTFDS", "log10 Kd, replicates": "ND / ND / ND / ND / ND / ND", "control signals": "0/18"}
{"CDR-H1": "GFMLNSYGIS", "CDR-H2": "VIYSDGRRTFYGDSVR", "CDR-H3": "GRAAGRFDS", "log10 Kd, replicates": "1.08 / ND / ND / 1.46 / 1.86 / ND", "control signals": "1/18 (1.99)"}
{"CDR-H1": "GFTLNEYGIS", "CDR-H2": "VIYSDGRRQFYGDSVK", "CDR-H3": "GRAAGTFDS", "log10 Kd, replicates": "0.77 / 1.09 / 0.38 / 0.86 / 1.15 / 0.81", "control signals": "0/18"}
{"CDR-H1": "GFNLNEYGIS", "CDR-H2": "VIYSDGRRTFYGDSVK", "CDR-H3": "GKAAGTFDR", "log10 Kd, replicates": "ND / ND / ND / 2.00 / ND / ND", "control signals": "0/18"}
{"CDR-H1": "GFMLNSYGIS", "CDR-H2": "VIYSDGRRTFYGDSVK", "CDR-H3": "GPAAGTFDS", "log10 Kd, replicates": "ND / ND / ND / ND / ND / ND", "control signals": "0/18"}

The opening 3 entries, copied out:

{"CDR-H1": "GFALNDYGIS", "CDR-H2": "VIYSDGRRTFYGNSVK", "CDR-H3": "GRADGTFDS", "log10 Kd, replicates": "0.09 / 0.20 / 0.29 / 0.75 / 2.51 / 1.55", "control signals": "0/18"}
{"CDR-H1": "GFTLNSYGIS", "CDR-H2": "VIYSDGRRTFYGDSVK", "CDR-H3": "GMAAGTFDG", "log10 Kd, replicates": "ND / ND / ND / ND / ND / ND", "control signals": "0/18"}
{"CDR-H1": "GFTLNKYGIS", "CDR-H2": "VIYSDGRRTFYNDKVK", "CDR-H3": "GEFAGTFDD", "log10 Kd, replicates": "ND / ND / ND / ND / ND / ND", "control signals": "2/18 (2.28)"}